Test results taken from publication PMC7890977 (Alzheimer's Research & Therapy, 2021).

Target: T1, Amyloid-β peptide 1–42 (UniProt P05067 672-713)
T1 construct: Amyloid-β 1–42, cut product of the amyloid precursor protein; numbers count on: the Aβ peptide; also called Aβ_(1–42); Aβ; source: bought: rPeptide (MST); Anaspec (ThT aggregation assay); Bachem (TEM)
Assay: MST; 20 nM NT647-labelled CERT incubated 20 min at room temperature in the dark with Aβ1–42 (3–100,000 nM) in PBS Tween20 (0.01%); Monolith NT.155, LED 40.51%, IR laser 80%
Details: both partners purified

Kd: 2.5 ± 0.3 µM
B1: Recombinant human CERTL (72 kDa, hCERTL) (natural protein, UniProt Q9Y5P4-1 1-624, looked up)
chain: MSDNQSWNSSGSEEDPETESGPPVERCGVLSKWTNYIHGWQDRWVVLKNNALSYYKSEDETEYGCRGSICLSKAVITPHDFDECRFDISVNDSVWYLRAQDPDHRQQWIDAIEQHKTESGYGSESSLRRHGSMVSLVSGASGYSATSTSSFKKGHSLREKLAEMETFRDILCRQVDTLQKYFDACADAVSKDELQRDKVVEDDEDDFPTTRSDGDFLHSTNGNKEKLFPHVTPKGINGIDFKGEAITFKATTAGILATLSHCIELMVKREDSWQKRLDKETEKKRRTEEAYKNAMTELKKKSHFGGPDYEEGPNSLINEEEFFDAVEAALDRQDKIEEQSQSEKVRLHWPTSLPSGDAFSSVGTHRFVQKPYSRSSSMSSIDLVSASDDVHRFSSQVEEMVQNHMTYSLQDVGGDANWQLVVEEGEMKVYRREVEENGIVLDPLKATHAVKGVTGHEVCNYFWNVDVRNDWETTIENFHVVETLADNAIIIYQTHKRVWPASQRDVLYLSVIRKIPALTENDPETWIVCNFSVDHDSAPLNNRCVRAKINVAMICQTLVSPPEGNQEISRDNILCKITYVANVNPGGWAPASVLRAVAKREYPKFLKRFTSYVQEKTAGKPILF
modifications: NT647 label (in the MST)
notes: also called recombinant CERTL; NT647 labeled CERT
